Measured values from ChEMBL document CHEMBL1221395, “Synthesis, anticancer activity and mitochondrial mediated apoptosis inducing ability of 2,5-diaryloxadiazole-pyrrolobenzodiazepine conjugates” (Bioorg Med Chem, 2010).

System: Calf thymus DNA
Assay: Binding affinity to calf thymus DNA assessed as change in melting temperature after 18 hrs
Assay type: nucleic-acid assay
Details: Bos taurus
Summary of the method: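 Thermal melting with duplex CT-DNA (100 µM in phosphate) and ligand (20 µM), added from methanol stock, [PBD]/[DNA] 1:5, in 10 mM sodium phosphate + 1 mM EDTA, pH 7.00; incubated at 37 °C for 18 h. A260 monitored while heating at 1 °C/min over 40–90 °C. Tm taken from d(A260)/dT maxima, corrected for methanol; ΔTm = Tm(DNA+ligand) − Tm(DNA alone); at least three determinations.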

With `COc1cc2c(cc1O)N=C[C@@H]1CCCN1C2=O` the ΔTm was 0.7 °C.
